# pEC50: −log10 of the molar value.
# The chains behind the UniProt entries cited, without tags or fusion partners.
# UniProt P22001, whole entry: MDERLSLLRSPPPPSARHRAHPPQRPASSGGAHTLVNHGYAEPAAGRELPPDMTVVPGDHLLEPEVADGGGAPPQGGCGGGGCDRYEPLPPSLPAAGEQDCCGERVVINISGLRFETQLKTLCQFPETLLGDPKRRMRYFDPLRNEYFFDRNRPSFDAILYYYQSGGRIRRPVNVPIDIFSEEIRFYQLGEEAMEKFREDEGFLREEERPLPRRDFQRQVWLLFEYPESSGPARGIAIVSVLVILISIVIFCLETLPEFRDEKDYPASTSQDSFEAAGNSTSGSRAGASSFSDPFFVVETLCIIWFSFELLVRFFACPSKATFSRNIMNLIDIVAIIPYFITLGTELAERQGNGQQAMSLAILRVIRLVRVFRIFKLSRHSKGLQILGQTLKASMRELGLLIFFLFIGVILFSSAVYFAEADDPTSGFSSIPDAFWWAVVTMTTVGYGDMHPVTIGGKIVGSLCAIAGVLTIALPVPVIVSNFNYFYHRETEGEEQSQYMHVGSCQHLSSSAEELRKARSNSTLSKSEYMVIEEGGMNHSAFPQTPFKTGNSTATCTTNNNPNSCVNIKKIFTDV
# Biological target: human Kv1.3 ion channel (Homo sapiens, UniProt P22001)
# Assay: Inhibition of Kv1.3 currents, planar patch clamp in Jurkat cells
# Details: read-out: EC50 Kv1.3, Human Jurkat cells (endogenous hKv1.3), averaged dose response data from 3 or more cells
# Procedure: Potency of compounds to inhibit the human Kv1.3 ion channel were determined as follows:
# EC50 values for inhibition of Kv1.3 currents were determined by the method according to Schmitz et al (2005) Molecular Pharmacology 68, 1254-1270 with the following differences: • 1. Human Jurkat cells (which endogenously express hKv1.3) were used in place of rat L929 cells. • 2. All electrophysiology was performed using planar patch clamp (Port-A-Patch, Nanion Technologies Gmbh, Munich) in contrast to conventional patch clamp. • 3. EC50 values shown were determined from averaged dose response data obtained from 3 or more cells.
row,pEC50,Compound
1,6.52,CC(=O)c1c(O)c(OCCCc2ccccc2)c2occc2c1C
2,6.37,CC(=O)c1c(OCCCN2CCOCC2)c(OCCCc2ccccc2)c2occc2c1C
3,7.85,CC(=O)c1c(C)c2c(c(OCCC(C)c3ccc(F)cc3)c1OCCc1ccccn1)OCC2 (stereo not drawn)

# — patent US8309545B2, “Benzofuran potassium channel blockers and uses thereof” (Bionomics Limited, priority 2006, dated 2012)
